Legend:
[1] = test system: Cysteinyl leukotriene receptor (Cavia porcellus); experiment: Inhibition of percent protection from LTD4-induced dyspnea in a conscious guinea pig administered intravenously
Cavia porcellus = experiment: ED50 (p.o.) / ED50 (i.v.) ratio of the compound; assay type: functional
Summary of the method: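 Ratio of oral ED50 to intravenous ED50 from the conscious guinea pig LTD4-induced dyspnea model, used as an index of oral bioavailability.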

Compound: CCC(CNC(=O)c1ccc2c(c1)c(Cc1ccc(C(=O)NS(=O)(=O)c3ccccc3Br)cc1OC)cn2C)CC(F)(F)F (configuration not stated)
- ED50 [1]: 0.045 µmol/kg
- Ratio (Cavia porcellus): 56
